Assay results from US20250205361A1, “TREATMENT […] FOR T[…] […] ACT VIA AN INT[…] TARGET” (priority 2023, published 2025).

System: STAT3
Experiment: STAT3 RNA quantification (qRT-PCR) in A2058 cells, depot release
Format: cell-based, human
Experimental: Cells were cultured in DMEM (PAN-Biotech GmbH) supplemented with 10% fetal bovine serum (FBS) (PAN-Biotech GmbH) and Pen/Strep (PAN-Biotech GmbH) at 37° C. and 5% CO2. Cells were seeded in a 24-well plate at 30.000 cells/well in 600 μL/well and incubated overnight at 37° C. The next day, 10× concentrated compound-mix samples were prepared in PBS, which contained the compounds as indicated in the experimental set up (FIG. 4A, 4B, 4C, 4D), i.e. PBS, an antisense oligonucleotide (ASO) and/or saponin component at 10× final concentration. Additional 210 μL culture medium was added to the wells, followed by the addition of 90 μL compound-mix/well. […]
RNA Isolation and Gene Expression Analysis from A431 and A2058 Cells RNA from cells was isolated using TRIzoI™ Reagent (Thermo Scientific) according to the manufacturer's instruction. […] STAT3 expression levels and levels of housekeeping genes were determined using quantitative real-time PCR assays (qRT-PCR) using iTaq™ Universal SYBR@Green Supermix (BioRad) and the Light Cycler 480 II (Roche Diagnostics) with specific DNA primers, listed in Table A3. […]

Q: With “Cet-AH-SO1861: cetuximab - SO1861 conjugate, SO1861 to Ab ratio 3.9” as the substance, how does the STAT3 levels remaining (STAT3 ASO loading 24 hrs, wash, saponin component directly or after 6 hr or 24 hr resting period) read?
A: not effective

Q: And the “residual STAT3 expression” value (co-administration of STAT3 ASO plus saponin component 48 hrs)?
A: did not enhance STAT3 silencing
